# Like-named read-outs stand apart in the source and are kept apart here.
# Protein sequences, listed by entry. Tags and fused reporters are not part of them.
# UniProt P32245, whole entry: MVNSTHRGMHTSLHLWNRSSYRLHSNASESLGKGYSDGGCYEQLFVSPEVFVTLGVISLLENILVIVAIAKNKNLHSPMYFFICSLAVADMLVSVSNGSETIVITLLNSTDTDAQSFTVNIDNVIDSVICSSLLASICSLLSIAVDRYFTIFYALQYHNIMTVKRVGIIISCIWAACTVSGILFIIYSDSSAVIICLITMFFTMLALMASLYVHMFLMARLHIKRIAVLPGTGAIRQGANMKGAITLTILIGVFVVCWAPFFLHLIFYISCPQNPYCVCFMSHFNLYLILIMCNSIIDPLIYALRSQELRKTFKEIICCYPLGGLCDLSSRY
# UniProt Q01726, whole entry: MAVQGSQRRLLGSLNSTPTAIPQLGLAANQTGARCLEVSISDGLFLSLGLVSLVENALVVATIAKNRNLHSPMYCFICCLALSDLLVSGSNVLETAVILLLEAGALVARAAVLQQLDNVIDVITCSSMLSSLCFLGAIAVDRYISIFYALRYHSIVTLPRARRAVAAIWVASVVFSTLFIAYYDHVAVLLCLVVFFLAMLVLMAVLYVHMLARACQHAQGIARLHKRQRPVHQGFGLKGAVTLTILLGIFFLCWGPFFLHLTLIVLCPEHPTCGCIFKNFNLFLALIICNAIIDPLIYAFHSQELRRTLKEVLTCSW
# What was measured:
# MCR-4 = MCR-4 (Homo sapiens, UniProt P32245); assay: Melanocortin receptor binding assay, competition with 125I-HP 467, HEK 293 cells expressing hMCR-4; conditions: for IC50: read-out: MC-4 IC50; for MC-4 IC50: TRG 2414 library, inhibition of binding of 125I-HP 467, HEK 293 cells expressing MCR-4
# MCR-1 = MCR-1 (Homo sapiens, UniProt Q01726); assay: Melanocortin receptor binding assay, competition with 125I-HP 467, HEK 293 cells expressing hMCR-1; conditions: for IC50: read-out: MC-1 IC50; for MC-1 IC50: TRG 2414 library, inhibition of binding of 125I-HP 467, HEK 293 cells expressing MCR-1
# [1] = competition with 125I-HP 467, HEK 293 cells expressing MCR-4
# [2] = competition with 125I-HP 467, HEK 293 cells expressing MCR-1
# [3] = TRG 2408 and TRG 2409 libraries, inhibition of 125I-HP 467 binding
IC50 (MCR-4; [3]),IC50 (MCR-1; [3]),MC-4 IC50 (MCR-4),MC-1 IC50 (MCR-1),SMILES,also measured
,,,,CCNc1ccc(C2C(CNCCc3ccccc3)c3ccccc3CN2CCCC[C@@H](CN)NCc2ccc(Cl)cc2)cc1 (stereo partly drawn),IC50 (MCR-4; [1]): 1.04 µM; IC50 (MCR-1; [2]): 0.16 µM
17.5 µM,4.61 µM,,,NCCN[C@H](CN)CCN1Cc2ccccc2C(CNCc2ccccc2O)C1c1ccc(-c2ccccc2)cc1 (stereo partly drawn),
6.05 µM,1.8 µM,,,CNCCN[C@@H](CN)CCCCN1Cc2ccccc2C(CNCc2ccccc2O)C1c1ccc(Cl)cc1Cl (stereo partly drawn),
10.9 µM,4.34 µM,,,NC[C@H](CCCCN1Cc2ccccc2C(CNCc2ccccc2O)C1c1ccc(Cl)cc1Cl)NCCc1ccccc1 (stereo partly drawn),
18.1 µM,8.81 µM,,,NC[C@@H](CCCCN1Cc2ccccc2C(CNCc2ccccc2O)C1c1ccc(-c2ccccc2)cc1)NCCc1ccccc1 (stereo partly drawn),
13.3 µM,4.66 µM,,,NC[C@H](CCCN1Cc2ccccc2C(CNCc2ccccc2O)C1c1ccc(Cl)cc1Cl)NCCc1ccccc1 (stereo partly drawn),
,,no fit,no fit,COc1ccc(CNC(=O)C2c3ccccc3C(=O)N(CCCC[C@H](NC(=O)C(C)c3ccc(CC(C)C)cc3)C(N)=O)C2c2ccc(Oc3ccccc3)cc2)cc1 (stereo partly drawn),
,,no fit,no fit,COc1ccc(CNC(=O)C2c3ccccc3C(=O)N(CCCC[C@H](NC(=O)c3ccccc3)C(N)=O)C2c2cc(C(F)(F)F)cc(C(F)(F)F)c2)cc1 (stereo partly drawn),
8.04 µM,3.71 µM,,,NCCN[C@H](CN)CCN1Cc2ccccc2C(CNCc2ccccc2O)C1c1ccc(Cl)cc1Cl (stereo partly drawn),
,,no fit,no fit,COc1ccccc1CCNC(=O)C1c2ccccc2C(=O)N(CCCC[C@H](NC(=O)c2ccccc2)C(N)=O)C1c1cc(C(F)(F)F)cc(C(F)(F)F)c1 (stereo partly drawn),
20.2 µM,2.38 µM,,,CNCCN[C@H](CN)CCCN1Cc2ccccc2C(CNCc2ccccc2O)C1c1ccc(-c2ccccc2)cc1 (stereo partly drawn),
,,no fit,no fit,CCCOc1ccc(C2C(C(=O)NCCc3cccc(Cl)c3)c3ccccc3C(=O)N2CCCC[C@H](NC(=O)Cc2ccccc2)C(N)=O)cc1 (stereo partly drawn),
,,no fit,no fit,CC(C)Cc1ccc(C(C)C(=O)N[C@@H](CCCCN2C(=O)c3ccccc3C(C(=O)NCCc3cccc(Cl)c3)C2c2cc(C(F)(F)F)cc(C(F)(F)F)c2)C(N)=O)cc1 (stereo partly drawn),
,,no fit,no fit,COc1ccc(CCNC(=O)C2c3ccccc3C(=O)N(CCCC[C@H](NC(=O)Cc3ccccc3)C(N)=O)C2c2ccc(Oc3ccccc3)cc2)cc1 (stereo partly drawn),
,,no fit,no fit,CCCOc1ccc(C2C(C(=O)NCCc3ccccc3OC)c3ccccc3C(=O)N2CCCC[C@H](NC(=O)c2ccccc2)C(N)=O)cc1 (stereo partly drawn),
,,no fit,no fit,COc1ccccc1CCNC(=O)C1c2ccccc2C(=O)N(CCCC[C@H](NC(=O)Cc2ccccc2)C(N)=O)C1c1cc(C(F)(F)F)cc(C(F)(F)F)c1 (stereo partly drawn),
,,no fit,no fit,CCCOc1ccc(C2C(C(=O)NCc3ccc(OC)cc3)c3ccccc3C(=O)N2CCCC[C@H](NC(=O)Cc2ccccc2)C(N)=O)cc1 (stereo partly drawn),
17.8 µM,1.33 µM,,,NCCN[C@H](CN)CCCN1Cc2ccccc2C(CNCc2ccccc2O)C1c1ccc(-c2ccccc2)cc1 (stereo partly drawn),
12.5 µM,2.54 µM,,,NC[C@@H](N)CCCN1Cc2ccccc2C(CNCc2ccccc2O)C1c1ccc(-c2ccccc2)cc1 (stereo partly drawn),

IC50 (MCR-4; [3]),IC50 (MCR-1; [3]),MC-4 IC50 (MCR-4),MC-1 IC50 (MCR-1),SMILES,also measured
19 µM,1.7 µM,,,CNCCN[C@@H](CN)CCCCN1Cc2ccccc2C(CNCc2ccccc2O)C1c1ccc(-c2ccccc2)cc1 (stereo partly drawn),
16.4 µM,14.7 µM,,,NC[C@H](CCN1Cc2ccccc2C(CNCc2ccccc2O)C1c1ccc(-c2ccccc2)cc1)NCCc1ccccc1 (stereo partly drawn),
,,,,CN[C@H](CN)CCCCN1Cc2ccccc2C(CNCc2ccccc2O)C1c1ccc(NCC(C)C)cc1 (stereo partly drawn),IC50 (MCR-4; [1]): 15.8 µM; IC50 (MCR-1; [2]): 0.68 µM
,,no fit,no fit,CCCOc1ccc(C2C(C(=O)NCc3ccc(OC)cc3)c3ccccc3C(=O)N2CCCC[C@H](NC(=O)c2ccccc2)C(N)=O)cc1 (stereo partly drawn),
,,no fit,no fit,COc1ccccc1CCNC(=O)C1c2ccccc2C(=O)N(CCCC[C@H](NC(=O)C(C)c2ccc(CC(C)C)cc2)C(N)=O)C1c1ccc(Cl)cc1Cl (stereo partly drawn),
,,no fit,no fit,NC(=O)[C@@H](N)CCCCN1C(=O)c2ccccc2C(C(=O)NCCc2cccc(Cl)c2)C1c1cc(C(F)(F)F)cc(C(F)(F)F)c1 (stereo partly drawn),
28.8 µM,4.24 µM,,,NCCN[C@@H](CN)CCCCN1Cc2ccccc2C(CNCc2ccccc2O)C1c1ccc(-c2ccccc2)cc1 (stereo partly drawn),
,,no fit,no fit,COc1ccc(CNC(=O)C2c3ccccc3C(=O)N(CCCC[C@H](NC(=O)c3ccccc3)C(N)=O)C2c2ccc(Cl)cc2Cl)cc1 (stereo partly drawn),
,,no fit,no fit,COc1ccccc1CCNC(=O)C1c2ccccc2C(=O)N(CCCC[C@H](NC(=O)Cc2ccccc2)C(N)=O)C1c1ccc(Oc2ccccc2)cc1 (stereo partly drawn),
2.17 µM,1.81 µM,,,NC[C@@H](N)CCCCN1Cc2ccccc2C(CNCc2ccccc2O)C1c1ccc(Cl)cc1Cl (stereo partly drawn),
,,,,CN[C@H](CN)CCCCN1Cc2ccccc2C(CNCc2ccccc2O)C1c1ccc(NCCOC)cc1 (stereo partly drawn),IC50 (MCR-4; [1]): 18.4 µM; IC50 (MCR-1; [2]): 1.15 µM
,,no fit,no fit,COc1ccc(CCNC(=O)C2c3ccccc3C(=O)N(CCCC[C@H](NC(=O)c3ccccc3)C(N)=O)C2c2ccc(Oc3ccccc3)cc2)cc1 (stereo partly drawn),
15.1 µM,2.34 µM,,,NC[C@@H](N)CCCCN1Cc2ccccc2C(CNCc2ccccc2O)C1c1ccc(-c2ccccc2)cc1 (stereo partly drawn),
,,no fit,no fit,NC(=O)[C@H](CCCCN1C(=O)c2ccccc2C(C(=O)NCCc2cccc(Cl)c2)C1c1cc(C(F)(F)F)cc(C(F)(F)F)c1)NC(=O)Cc1ccccc1 (stereo partly drawn),
,,no fit,no fit,COc1ccc(CNC(=O)C2c3ccccc3C(=O)N(CCCC[C@H](NC(=O)Cc3ccccc3)C(N)=O)C2c2ccc(Oc3ccccc3)cc2)cc1 (stereo partly drawn),
7.85 µM,5.09 µM,,,CN[C@H](CN)CCN1Cc2ccccc2C(CNCc2ccccc2O)C1c1ccc(Cl)cc1Cl (stereo partly drawn),
,,no fit,no fit,COc1ccc(CCNC(=O)C2c3ccccc3C(=O)N(CCCC[C@H](NC(=O)Cc3ccccc3)C(N)=O)C2c2cc(C(F)(F)F)cc(C(F)(F)F)c2)cc1 (stereo partly drawn),
,,no fit,no fit,CCCOc1ccc(C2C(C(=O)NCCc3cccc(Cl)c3)c3ccccc3C(=O)N2CCCC[C@H](NC(=O)c2ccccc2)C(N)=O)cc1 (stereo partly drawn),
9.73 µM,4.75 µM,,,CNCCN[C@H](CN)CCN1Cc2ccccc2C(CNCc2ccccc2O)C1c1ccc(-c2ccccc2)cc1 (stereo partly drawn),

IC50 (MCR-4; [3]),IC50 (MCR-1; [3]),MC-4 IC50 (MCR-4),MC-1 IC50 (MCR-1),SMILES,also measured
11.2 µM,3.58 µM,,,CN[C@H](CN)CCCN1Cc2ccccc2C(CNCc2ccccc2O)C1c1ccc(-c2ccccc2)cc1 (stereo partly drawn),
13.4 µM,0.91 µM,,,CCNc1ccc(C2C(CNCc3ccccc3O)c3ccccc3CN2CCC[C@@H](CN)NCCNC)cc1 (stereo partly drawn),
6.47 µM,3.87 µM,,,CNCCN[C@H](CN)CCN1Cc2ccccc2C(CNCc2ccccc2O)C1c1ccc(Cl)cc1Cl (stereo partly drawn),
,,no fit,no fit,COc1ccc(CCNC(=O)C2c3ccccc3C(=O)N(CCCC[C@H](N)C(N)=O)C2c2ccc(Cl)cc2Cl)cc1 (stereo partly drawn),
,,,,CN[C@H](CN)CCCCN1Cc2ccccc2C(CNCc2ccccc2O)C1c1ccc(NCCc2ccc(OC)cc2)cc1 (stereo partly drawn),IC50 (MCR-4; [1]): 21 µM; IC50 (MCR-1; [2]): 1.7 µM
,,no fit,no fit,NC(=O)[C@H](CCCCN1C(=O)c2ccccc2C(C(=O)NCCc2cccc(Cl)c2)C1c1ccc(Cl)cc1Cl)NC(=O)c1ccccc1 (stereo partly drawn),
,,no fit,no fit,COc1ccc(CNC(=O)C2c3ccccc3C(=O)N(CCCC[C@H](NC(=O)Cc3ccccc3)C(N)=O)C2c2ccc(Cl)cc2Cl)cc1 (stereo partly drawn),
,,no fit,no fit,COc1ccc(CCNC(=O)C2c3ccccc3C(=O)N(CCCC[C@H](NC(=O)c3ccccc3)C(N)=O)C2c2cc(C(F)(F)F)cc(C(F)(F)F)c2)cc1 (stereo partly drawn),
,,no fit,no fit,NC(=O)[C@H](CCCCN1C(=O)c2ccccc2C(C(=O)NCCc2cccc(Cl)c2)C1c1ccc(Oc2ccccc2)cc1)NC(=O)Cc1ccccc1 (stereo partly drawn),
23.3 µM,2.76 µM,,,CCNc1ccc(C2C(CNCc3ccccc3O)c3ccccc3CN2CC[C@@H](CN)NCCN)cc1 (stereo partly drawn),
20.4 µM,1.85 µM,,,NC[C@H](N)CCCCN1Cc2ccccc2C(CNCc2ccccc2O)C1c1ccc(-c2ccccc2)cc1 (stereo partly drawn),
17.6 µM,1.66 µM,,,CCNc1ccc(C2C(CNCc3ccccc3O)c3ccccc3CN2CCCC[C@@H](CN)NCCNC)cc1 (stereo partly drawn),
,,no fit,no fit,COc1ccc(CNC(=O)C2c3ccccc3C(=O)N(CCCC[C@H](NC(=O)Cc3ccccc3)C(N)=O)C2c2cc(C(F)(F)F)cc(C(F)(F)F)c2)cc1 (stereo partly drawn),
15.1 µM,0.51 µM,,,CCNc1ccc(C2C(CNCc3ccccc3O)c3ccccc3CN2CCCC[C@H](N)CN)cc1 (stereo partly drawn),
,,no fit,no fit,CCCOc1ccc(C2C(C(=O)NCCc3ccccc3OC)c3ccccc3C(=O)N2CCCC[C@H](NC(=O)Cc2ccccc2)C(N)=O)cc1 (stereo partly drawn),
16.4 µM,1.44 µM,,,CCNc1ccc(C2C(CNCc3ccccc3O)c3ccccc3CN2CCC[C@@H](CN)NCCN)cc1 (stereo partly drawn),
8.55 µM,1.18 µM,,,CCNc1ccc(C2C(CNCc3ccccc3O)c3ccccc3CN2CCCC[C@@H](CN)NCCc2ccccc2)cc1 (stereo partly drawn),
8.72 µM,6.33 µM,,,NC[C@@H](N)CCN1Cc2ccccc2C(CNCc2ccccc2O)C1c1ccc(Cl)cc1Cl (stereo partly drawn),
21.8 µM,2.64 µM,,,NCCN[C@H](CN)CCCCN1Cc2ccccc2C(CNCc2ccccc2O)C1c1ccc(-c2ccccc2)cc1 (stereo partly drawn),
